Test results published in patent US9170266B2, “Fluorescent probe” (THE UNIVERSITY OF TOKYO, priority 2011, dated 2015).

Assay: Optical characteristics (absorption, fluorescence, quantum yield) in phosphate buffer, Table 2
Details: phosphate buffer (pH 9)

**Q.** For 2-Me Ge-TM, which Φfl is on record?
**A.** 0.47

**Q.** And the λabs?
**A.** 572 nm

**Q.** What about the λfl of the same substance?
**A.** 590 nm
